Reference: US20130251783A1, “LIPOSOMES CONTAINING PERMEATION ENHANCERS FOR ORAL DRUG DELIVERY” (Universitat Heidelberg, priority 2011, published 2013)

Key:
[1] = room temperature; cited from earlier work
Caco-2 cells [2] = test: Alamar Blue cytotoxicity assay; assay type: cell-based; settings: free enhancer in KRB, 10 mM
Description: (§1) Caco-2 cells were grown in T-75 flasks in Dulbecco's modified Eagle's medium (DMEM) supplemented with 10% FBS, 1% non-essential amino acids, 1% pyruvate, 1% L-glutamine, 100 U/ml penicillin and 100 μg/ml streptomycin at 37° C. in an atmosphere with 5% CO2 and in equilibrium with distilled water. The medium was changed every other day, and the cells were subcultured at 80% confluency. Cells were used in the experiments described below.
(§2) Cytotoxicity of liposomes and bio-enhancer solutions was investigated using the Alamar Blue® assay (AbD Serotec, Oxford, UK) and by determination of the release of lactate dehydrogenase (LDH) with a test kit (Sigma-Aldrich, Taufkirchen, Germany). […] The formed NADH in turn reduces a tetrazolium salt to a red-coloured product which can be determined photometrically. […]
In terms of the Alamar Blue® assay, groups of eight wells were incubated with the solutions of the bio-enhancers in five concentrations (1 μM, 10 μM, 100 μM, 1 mM and 10 mM) and the liposomal formulations in three concentrations (0.5 mM, 5 mM and 50 mM total lipid) in KRB for 2, 4, and 8 h at 37° C. […] After 4 h at 37° C., the colour change of the dye was determined at an excitation wavelength of 530 nm and an emission wavelength of 590 nm in a Fluoroskan Ascent® plate reader. […] Cell viability was expressed as follows: […]

rats = settings: cited from earlier work
Caco-2 cells [3] = test: LDH release cytotoxicity assay; assay type: cell-based; settings: free enhancer in KRB, 10 mM, 8-h versus 2-h incubation
Description: as §1, §2
For the LDH release assay, cells were treated similar as described for the Alamar Blue® cytotoxicity assay with little changes. […] The reaction was stopped by the addition of 10 μl 1N HCl and subsequently, the colour change of the dye was measured by a Tecan microplate absorbance reader (Sunrise, Tecan, Grodig, Austria) at a wavelength of 490 nm and a reference wavelength of 700 nm. To eliminate the influence of the liposomes and the bio-enhancers on the absorbance, a blank was measured of the formulations with a concentration equal to the final assay concentration. […]

Caco-2 cells [4] = settings: cited from earlier work

| Substance | CMC [1] | Effect on cell viability (Caco-2 cells [2]; 2-h incubation) | Cell viability (Caco-2 cells [2]; 8-h incubation) | LD50 (rats) [mg/kg] | Cell viability by LDH release (confirmation of the Alamar Blue finding) (Caco-2 cells [3]) | Concentration at which toxicity starts in LDH release assay (Caco-2 cells [4]) [μm] |
| --- | --- | --- | --- | --- | --- | --- |
| D-α-tocopheryl polyethylene glycol 400 succinate [TPGS 400] | around 1.5 mM |  |  |  |  |  |
| D-α-tocopheryl polyethylene glycol 1000 succinate [TPGS 1000] | around 0.02 mM | no effect | to a minimum | > 7000 | confirmed | 625 |
